In patent EP1903052A2, “APJ receptor ligands and uses thereof” (Faust Pharmaceuticals SA, priority 2006, dated 2008):
Like-named read-outs stand apart in the source and are kept apart here.

Amino acid sequences for entries named in this document (tags omitted). A change or cut given only in a name is not applied to a line headed by its entry.
UniProt Q9ULZ1: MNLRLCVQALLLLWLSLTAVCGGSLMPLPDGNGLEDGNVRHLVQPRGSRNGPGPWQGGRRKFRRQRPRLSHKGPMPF

Legend:
rat apelin receptor-EGFP [1] = target: T1, rat apelin receptor-EGFP (Rattus norvegicus, UniProt Q9JHG3); assay: Internalization of the apelin receptor-EGFP in CHO cells (confocal microscopy); assay type: cell-based; settings: 100 nM, stimulation for 20 min
T1 construct: expressed in transfected cells; host or cells: CHO cells, stably transfected
T1 sequence (Q9JHG3 1-377): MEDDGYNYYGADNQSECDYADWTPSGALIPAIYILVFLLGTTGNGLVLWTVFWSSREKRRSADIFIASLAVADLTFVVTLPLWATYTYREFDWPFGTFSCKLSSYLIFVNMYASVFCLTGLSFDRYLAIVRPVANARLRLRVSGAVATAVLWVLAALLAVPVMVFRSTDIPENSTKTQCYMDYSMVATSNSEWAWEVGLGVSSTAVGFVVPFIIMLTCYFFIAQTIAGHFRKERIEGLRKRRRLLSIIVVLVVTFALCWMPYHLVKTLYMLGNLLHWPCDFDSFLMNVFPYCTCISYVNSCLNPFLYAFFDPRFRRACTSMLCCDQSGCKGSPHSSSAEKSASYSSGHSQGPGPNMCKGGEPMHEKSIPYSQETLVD
Method: The compound 7 as well as the apelin fragments: fluorescent apelin 13 (lissamine) and non fluorescent apelin 13 were tested on the internalization of the murine apelin receptor tagged with EGFP.
Approximately 2.5 x 10^5 stably transfected CHO cells expressing the rat apelin receptor-EGFP, in Ham's F12 medium, were used to seed polyallylamine hydrochloride-coated (Aldrich Sigma, 0.1 mg/ml for 30 min) 16-well glass slides (Lab-Tek Chamber Slides, Nalge Nunc, Rochester, NY). Cells were cultured overnight in a humidified atmosphere of 5% CO2 / 95% air. To prevent de novo the protein synthesis, cells were incubated for 90 min before plating with 90 µM of cycloheximide at 37°C and cycloheximide was maintained in the medium during and after incubation with ligands. […]
Cells were examined with a Leica TCS SP 2 (Leica Microsystems, Heidelberg, Germany) confocal laser scanning microscope mounted on a Leica DM IRBE inverted microscope equipped with an argon/krypton laser. EGFP fluorescence was detected with 100% excitation at 488 nm, using a RSP 500 (dichroic) mirror with the emission wavelength set at 530-560 nm. […]

rat APJ receptor = target: T2, rat APJ receptor (Rattus norvegicus, UniProt Q9JHG3); settings: cited from earlier work
T2 construct: expressed in transfected cells; host or cells: CHO cells, stably transfected
T2 sequence (Q9JHG3 1-377): T1 sequence (Q9JHG3 1-377)

rat apelin receptor-EGFP [2] = target: T1, rat apelin receptor-EGFP; settings: cited from earlier work
[3] = 100 nM, Reaux et al., J. Neurochem., 2001

| Substance | internalization of the rat apelin receptor-EGFP (rat apelin receptor-EGFP [1]) | forskolin-stimulated cAMP production (rat APJ receptor; [3]) | IC50 (rat APJ receptor; inhibition of cAMP production induced by forskolin, CHO cell line expressing the murine APJ receptor, De Mota et al., Neuroendocrinology, 2000) [nM] | internalization of the rat apelin receptor-EGFP (rat apelin receptor-EGFP [2]; [3]) | internalisation of the APJ receptor (rat apelin receptor-EGFP [2]; at concentrations of 10^-8 M, Reaux et al. 2001, El Messari et al. 2004) |
| --- | --- | --- | --- | --- | --- |
| 8: fluorescent apelin 13 fragment pE13F tagged with lissamine (QRPRLSHKGPMPF; Apelin-13 pyroglutamate; lissamine label; UniProt Q9ULZ1 65-77, looked up) [Compound 8] | numerous fluorescent vesicles distributed through the cytoplasm | – | – | – | – |
| pE13F: apelin fragment apelin 13 (pE13F), non fluorescent (QRPRLSHKGPMPF; Apelin-13 N-terminal pyroglutamate; UniProt Q9ULZ1 65-77, looked up) | – | inhibit | 0.2 | intense internalization | massive internalisation |
